S100A4 inh HTS = inhibitors of S100A4-myosin IIA peptide binding, primary screen, biochemical, fluorescence polarization, TAMRA-MyoIIA peptide; Protein S100-A4 (Homo sapiens), P26447; inhibition, % at 10.7 µM; actives 0.14% (n = 360,000); AID 652163, 2013;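 active = mean inhibition of at least 70% across replicates, with every replicate also reaching that level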
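Test system: S100A4 monomer protein; Medium: HEPES pH 7.2 with CaCl2, KCl, NaCl, DTT, Triton; Probe or stimulus: TAMRA-labelled myosin IIA heavy-chain peptide probe, 5 nM; Doses: one dose per compound; Times: polarization read 5 min after assay mix addition, stable 5–60 min; Benchmarks: neutral control DMSO, positive control TFP.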
PDI inh = inhibitors of human PDI, primary screen, biochemical, turbidity, single point, plate reader | inhibition, % at 10 µM | PDI insulin aggregation turbidity, A650, 90 min | actives 0.052% (n = 350,000) | Protein disulfide-isomerase (Homo sapiens), P07237;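 active = mean inhibition across replicates of 30% or more, whatever share of single replicates reach that level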
ERp5 inh = inhibitors of ERp5-driven insulin aggregation, primary screen, biochemical, turbidity, absorbance 650 nm, single point. inhibition, % at 9.99 µM. AID 651711, 2012. 90 min. actives 0.05% (n = 350,000). Protein disulfide-isomerase A6 (Homo sapiens), Q15084;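 active = mean replicate inhibition above about 25%, with every replicate also reaching it, limit read from the data, passing the limit was not always enough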
Yeast UUG start = modulators of yeast start codon fidelity, primary screen, whole organism, S. cerevisiae, single point, plate reader. S. cerevisiae UUG-firefly luciferase reporter, luminescence/redox ratio. activity score, % at 18.7 µM. 350,000 tested, 0.13% active;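 active = replicate mean at a twofold rise or more, about +100% in these data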;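 also: firefly luciferase made from a UUG start codon reports start codon fidelity; reporter light over untreated wells divided by growth signal over untreated wells; some hits fall short of that in this replicate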
SIRT5 inh = SIRT5 desuccinylase inhibitors, primary screen, biochemical, fluorescence imaging, single point, set 5. inhibition, % at 15 µM. Purified SirT5, succinyl-peptide AMC, trypsin-coupled fluorescence. actives 1.1% (n = 330,000). NAD-dependent protein deacylase sirtuin-5, mitochondrial (Homo sapiens), Q9NXA8; in the data active = inhibition above about 15%
FGF22 binding = binders of human FGF22 protein, primary screen, FGF22 synaptogenesis inhibitor project, biophysical, thermal shift, single point | recombinant FGF22 thermal shift, SYPRO orange fluorescence; percent of sucrose octasulfate shift, DMSO zero | actives 1.5% (n = 340,000) | AID 651658, 2012 | Fibroblast growth factor 22 (Homo sapiens), Q9HCT0 | activity (Tm shift, normalised), % at 9.99 µM;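 active = mean Tm shift, scaled 0 neutral to 100 positive control, at about 1.3% or above, every replicate too, limit read from the data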
A number is an active result; - = inactive; . = not tested or not shown. This is a sample that favours compounds with a hit; in the whole collection about 2.2% have one here.

SMILES	S100A4 inh HTS	PDI inh	ERp5 inh	Yeast UUG start	SIRT5 inh	FGF22 binding
OCCNC(=S)Nc1ccc(Cl)c(Cl)c1	-	-	-	-	-	1.4
Cc1cc(C)cc(NC(=S)Nc2ccc(Cl)c(Cl)c2)c1	-	-	-	-	.	-
OCCNC(=S)Nc1cc(Cl)cc(Cl)c1	-	-	-	.	-	-
COc1ccc(NC(=S)Nc2cccc(C(C)=O)c2)cc1OC	-	-	-	.	-	-
COCC(=O)N(C)C[C@H]1Oc2ncc(C3=CCCCC3)cc2C(=O)N([C@@H](C)CO)C[C@@H]1C	-	.	-	-	-	-
C[C@@H]1CN([C@@H](C)CO)S(=O)(=O)c2ccc(C#Cc3ccccn3)cc2O[C@H]1CN(C)Cc1ccccc1	-	.	-	-	-	-
CC1=Nc2ccccc2/C1=C/c1c(N)n2c(S(=O)(=O)CC(C)C)nsc2nc1=O	-	-	-	.	-	44
CC1=Nc2ccc(C)cc2/C1=C/c1c(N)n2c(S(=O)(=O)C(C)C)nsc2nc1=O	-	-	-	.	19	.
CC(C)S(=O)(=O)c1nsc2nc(=O)c(/C=C3\C=Nc4ccccc43)c(N)n12	-	-	-	-	-	-
CSc1nsc2nc(=O)c(/C=C3\C=Nc4ccccc43)c(N)n12	-	-	-	-	-	1.5
CC1=Nc2ccccc2/C1=C/c1c(N)n2c(S(=O)(=O)C(C)C)nsc2nc1=O	-	-	-	-	.	.
C[C@@H]1CN([C@H](C)CO)C(=O)Cc2cc(NC(=O)Nc3cccc4ccccc34)ccc2O[C@@H]1CN(C)Cc1ccc(C(=O)Nc2ccccc2N)cc1	-	.	-	.	-	.
COc1ccccc1-c1cnc2c(c1)C(=O)N([C@H](C)CO)C[C@@H](C)[C@H](CN(C)CC1CCOCC1)O2	-	.	-	.	-	-
COc1ccc(NC(=O)CN2CCN(c3ccccn3)CC2)cc1Cl	-	-	-	-	29	-
CCCC(=O)Nc1ccc2c(c1)C(=O)N(C)[C@H]1CC[C@@H](CC(=O)Nc3cn(C)nc3C)O[C@@H]1CO2	-	.	-	-	-	-
O=C(CN1CCN(Cc2ccc(Cl)cc2)C1=O)NCc1cccs1	-	-	-	-	-	44
O=C(CN1CCN(S(=O)(=O)c2ccc(Cl)cc2)CC1)NCc1cccs1	-	-	-	.	-	.
C[C@H]1CN([C@@H](C)CO)S(=O)(=O)c2ccc(-c3ccncc3)cc2O[C@@H]1CN(C)C(=O)C1CCCCC1	.	.	.	-	.	.
COc1ccc(NC(=O)N[C@@H](CCSC)C(=O)O)cc1Cl	.	-	.	-	.	.
COc1ccc(NC(=O)N[C@@H](CCSC)C(=O)O)cc1OC	-	-	-	-	19	-
Cc1ccc(C=NNc2nc3c([nH]2)c(=O)n(C)c(=O)n3C)cc1	-	-	-	-	.	44
CNc1nc(NCc2ccccc2)c2sccc2n1	-	-	-	-	20	-
c1ccc(CNc2nc(NCc3cccs3)nc3ccsc23)cc1	-	-	-	-	-	-
Cc1noc(NS(=O)(=O)c2ccc(NC(=O)c3cnc4scc(C)n4c3=O)cc2)c1C	-	.	-	-	15	-
Cc1cc(NS(=O)(=O)c2ccc(NC(=O)c3cnc4scc(C)n4c3=O)cc2)nc(C)n1	-	.	-	-	-	-
C[C@H]1CN([C@@H](C)CO)C(=O)c2cc(C#Cc3cccnc3)cnc2O[C@H]1CN(C)C(=O)CN(C)C	-	.	-	-	-	-
CC(C)c1ccc(/C=N/Nc2ccc(C(=O)O)cc2)cc1	-	-	-	.	-	44
C[C@@H]1CN([C@@H](C)CO)C(=O)c2cc(NC(=O)CCCN(C)C)ccc2O[C@@H](C)CCCCO[C@H]1CN(C)S(=O)(=O)c1cccs1	-	.	-	-	-	-
C(=N/Nc1nccs1)/c1cccnc1	-	-	-	.	19	-
Clc1cccc(/C=N\Nc2nccs2)c1	-	-	-	-	-	.

Assay outcomes as filed in PubChem BioAssay.
